Test results published in BindingDB's records for 16140009 (Universit&#233, 2005).

Biological target: Sigma non-opioid intracellular receptor 1 (Homo sapiens, UniProt Q99720)
Assay: Inhibitory activity against Opioid receptor sigma 1 in guinea pig cerebral cortex using [3H](+)-pentazocine as radio ligand at pH 7.5 for 150 min at 22 C

Compound: O=c1n2c(c(O)n1C1CCN(Cc3ccccc3)CC1)Cc1ccccc1C2
- pIC50: 8.62

pIC50: −log10 of the molar value.
